Values of other authors as cited in patent publication US11130943B2, “Culture medium” (Koninklijke Nederlandse Akademie Van Wetenschappen, priority 2014, dated 2021).

Target: T1, ALK5 (TGF-βR1) (Homo sapiens, UniProt P36897)
T1 sequence (P36897 34-503): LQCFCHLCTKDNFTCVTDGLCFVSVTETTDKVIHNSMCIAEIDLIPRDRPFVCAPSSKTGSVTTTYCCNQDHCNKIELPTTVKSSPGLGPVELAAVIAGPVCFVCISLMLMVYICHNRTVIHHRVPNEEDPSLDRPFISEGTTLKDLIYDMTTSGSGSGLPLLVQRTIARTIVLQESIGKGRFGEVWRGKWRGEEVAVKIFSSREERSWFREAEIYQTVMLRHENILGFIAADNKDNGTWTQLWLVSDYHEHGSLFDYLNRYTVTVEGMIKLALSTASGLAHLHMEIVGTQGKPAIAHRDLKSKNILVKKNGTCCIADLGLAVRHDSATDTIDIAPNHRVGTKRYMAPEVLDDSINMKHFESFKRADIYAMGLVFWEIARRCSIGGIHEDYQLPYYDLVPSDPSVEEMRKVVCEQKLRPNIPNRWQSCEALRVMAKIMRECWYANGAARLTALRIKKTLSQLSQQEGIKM
Settings: p38 MAP kinase inhibitor at high concentrations; cited from earlier work

## C[S+]([O-])c1ccc(-c2nc(-c3ccc(F)cc3)c(-c3ccncc3)[nH]2)cc1 (stereo not shown) [SB-203580]
  concentration at which it is thought to inhibit ALK5: ≥ 10 µM
